Source: patent publication US8580517B2, “Biosensor and use thereof to identify therapeutic drug molecules and molecules binding orphan receptors” (priority 2003, dated 2013)

Amino acid sequences for entries named in this document (tags omitted).
UniProt P08172, whole entry: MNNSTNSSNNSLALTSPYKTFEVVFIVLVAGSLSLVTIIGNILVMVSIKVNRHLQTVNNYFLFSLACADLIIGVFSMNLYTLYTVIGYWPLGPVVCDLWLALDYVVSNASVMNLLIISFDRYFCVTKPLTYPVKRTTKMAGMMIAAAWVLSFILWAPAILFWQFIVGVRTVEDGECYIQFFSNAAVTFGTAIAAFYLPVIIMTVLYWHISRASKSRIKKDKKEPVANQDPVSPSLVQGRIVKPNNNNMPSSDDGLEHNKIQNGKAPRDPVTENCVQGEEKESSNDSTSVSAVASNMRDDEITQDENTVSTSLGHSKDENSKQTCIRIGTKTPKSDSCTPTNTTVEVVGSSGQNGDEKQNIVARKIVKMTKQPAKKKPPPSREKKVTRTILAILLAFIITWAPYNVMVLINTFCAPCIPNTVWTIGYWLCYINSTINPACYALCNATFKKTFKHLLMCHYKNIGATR

Molecular target: M2 muscarinic acetylcholine receptor (Homo sapiens, UniProt P08172)
Test: G protein biosensor FRET profile in insect cells (Sf9), baculovirus expression
Assay type: cell-based
Parameters: expressed in transfected cells; host or cells: Sf9 insect cells, baculovirus infection
From the text: Biosensor and receptor were expressed using the baculovirus system. One representative FRET profile is shown of three tests performed.

Structure (SMILES): C[N+](C)(C)CCOC(N)=O [carbachol]
- FRET signal intensity on addition of agonist: decrease in FRET signal intensity
